Test: Water solubility of effectors
Format: physicochemical
From the text: The need to solubilize p-cumate (p-cumic acid) in organic solvent (e.g. ethanol or dimethyl formamide) is a great disadvantage. The present invention thus provides water-soluble effectors as well as possibly expanding the spectrum of inducers beyond p-cumate. At first, cumic alcohol, 4-methyl benzylalcohol, ethyltoluene, indole-2-carboxylic acid, indole-3-carboxylic acid, benzoic acid, 3- and 4-hydroxybenzoic acids, 3,4-dihyroxybenzoic acid and 2,4-dihydrobenzoic acid were tried. […] In this P2-cymlacZ fusion system, the threshold cumate concentration for induction is in the order of 0.002 millimolar (mM).
Di-methyl p-aminobenzoic acid (DM PABA) and its sodium salt, DM PABA Na^+, Na^+ cumate, Na^+ trimethyl cumate, Na^+ benzoate, Na+toluate, and Na+ethylbenzoate were tested as possible inducers at various concentrations. […] The sodium salt of cumic acid was also tested vs cumic acid (taken as cumate).

Compound: CN(C)c1ccc(C(=O)O)cc1 [DM PABA, Di-methyl p-aminobenzoic acid]
- water solubility: water-soluble
